Experimental data reported in patent publication US20250381168A1, “VLA4 INHIBITORS AND USES THEREOF” (Washington University, priority 2022, published 2025).

Tested on: hematopoietic stem/progenitor cells (HSPCs)
Assay: HSPC mobilization into peripheral blood, colony forming unit (CFU) assay
Conditions: mice, single dose

COCCOCCOCCOCCOCCOCCOCCOCCOCCOCCOCCOCCOCCOCCOCCOCCOCCOCCOCCOCCOCCOCCOCCOCCn1cc(COCCOCCOCc2cc(OC)c(-c3ccc(C[C@H](NC(=O)[C@@H]4CCCN4S(=O)(=O)c4cc(Cl)cc(Cl)c4)C(=O)O)cc3)c(OC)c2)nn1
No. CFU (×10^3)/mL ± SD, 0.25 hr (0.25 hr post dose (TABLE 8)): 2.71 ± 0.63 (×10^3)/mL | No. CFU (×10^3)/mL ± SD, 2 hr (2 hr post dose (TABLE 8)): 3.97 ± 0.96 (×10^3)/mL | No. CFU (×10^3)/mL ± SD, 4 hr (4 hr post dose (TABLE 8)): 3.30 ± 0.22 (×10^3)/mL
